Key:
[1] = tested on: CT-26 murine colon carcinoma; details: CT-26 syngeneic
[2] = tested on: primary T cells co-cultured with CHO-PD-L1 cells; details: NECA, together with an anti-PD1 reagent
Experimental: In vitro the CHO-PD-L1 co-culture assay, T cells were treated in the presence of 20 CHO-PD-L1 cells with PD-1 antibody, and using 5′-N-ethylcarboxamide adenosine (NECA), an adenosine-mimicking reagent, to activate adenosine signaling.
Day 0, plate 10,000 CHO PDL1+ cells in Plate 96 Tissue Culture Flat Bottom plate in 100 ul of CHO Media without antibiotics. On day 1, T Cells were thawed and resuspended in T cell media at 1×10^6 cells/ml. Media was removed from the CHO PDL1+ cells plates and 130 ul of T cell media was added. T cell media at 198 ul was added onto the compound plates at 2 ul, or −1:100 dilution and then re-suspended. 20 ul of compounds from the compound plates were added onto the CHO cell plates at a final dilution of compounds at 1:1000. 50 ul of T cells (50,000 cells) were added onto the plates with CHO cells to make a total of 200 ul volume and incubation was carried out at 37° C. for 72 hrs. After 3 days in culture, the supernatant was collected for an hIFNg and hIL2 cytokine assay run using ProCartaplex 2 plex kits (Life Technologies Cat #PPX-02) for hIFNg and hIL2 (Manufacturer's Protocol). The cytokine assay using ProCartaplex kits are run on a Flex Map 3D Luminex multiplexing platform.

B16 melanoma = test: In vivo efficacy study, B16 syngeneic melanoma model; set-up: species or system mouse
From the text: Compound 9 was further evaluated in the B16 melanoma model, an immunologically cold model, for its ability to break immune checkpoint resistance.

Cn1nc(-c2c(-c3cccc(C#N)c3)nc(N)c3nc(Cc4ccccn4)nn23)ccc1=O [Compound 9, 3-(8-Amino-5-(1-methyl-6-oxo-1,6-dihydropyridazin-3-yl)-2-(pyridin-2-ylmethyl)-[1,2,4]triazolo[1,5-a]pyrazin-6-yl)benzonitrile]
tumor growth inhibition (TGI) relative to vehicle ([1]; 10 mg/kg BID in combination with an anti-PD-1 antibody): 77% | tumor growth inhibition (TGI) relative to the vehicle control ([1]; single agent, 10 mg/kg BID): 52% | T cell function [2]: restore the T cell function | single-agent activity (B16 melanoma): modest but insignificant single-agent activity

From patent US20250041310A1, “Combination Therapy Comprising A2A/A2B and PD-1/PD-L1 Inhibitors” (Incyte Corporation, priority 2020, published 2025)
